“Also recorded” adds a separate entry of the source. Read-outs that look alike come from different tables or passages of the source.
Legend:
[1] = system: Kaposi's sarcoma; test: Kaposi's sarcoma response in patients treated with hCG preparations; assay type: in vivo, human; conditions: for effect on visceral (lung and gastrointestinal) KS: very advanced disease, systemic therapy, within 1 to 3 months of initiating therapy; for response of recurrent cutaneous KS to higher dose hCG: KS relapse, week 79
[2] = system: KS tumors and cells; test: Overall anti-KS activity of hCG preparations and peptides in vitro and in vivo; conditions: identical amounts in International Units
[3] = system: KS lesions; conditions: cited from earlier work; for effect of intralesional hCG on KS lesions: intralesional injections, 250 to 2000 IU three times per week (Gill et al., 1996; Hermans et al., 1995)
[4] = system: KS Y-1 induced tumors; test: KS Y-1 tumors induced in immunodeficient mice; conditions: 100 IU subcutaneously daily for 7 days, findings comparable to the active peptides
[5] = Tolerability and toxicity of hCG therapy in patients
[6] = system: KS Y-1 or KS-SLK cells; test: KS clonogenic assay in methylcellulose; assay type: cell-based, human
Description: Briefly, the KS Y-1 cells were obtained from mononuclear cells isolated from pleural effusion of an AIDS patient with KS involving the lungs. After the depletion of T lymphocytes, monocytes/macrophages and fibroblasts by the cytotoxicity method, using monoclonal antibodies against CD2, CD3, CD4, CD8, CD10 and CD14 membrane antigens and baby rabbit complement, the cells were cultured in the absence of exogenous growth factors to select for transformed cells.

[7] = system: KS tumor; test: Apoptosis in situ immunostaining of KS tumor biopsies from AIDS-KS patients; assay type: in vivo, human
From the text: In control KS tumors treated with diluent only or untreated KS tumor tissues (not shown), there was little evidence of cell death (FIG. 2F).

[8] = intralesional 250 IU three times per week (Gill et al., 1996)
[9] = intralesional 2,000 IU three times per week (Gill et al., 1996)
[10] = patient PO-DU, KS-VC, 12,500 IU/week, Rx 37+ weeks

Substance: APL: commercial crude hCG preparation from Wyeth-Ayerst Laboratories
- KS response ([1]; patient PG-1, KS-C, 35,000 IU/week, Rx 16+ weeks): PD (PD indicates progressive disease)
- KS response ([1]; patient PG-4, KS-C, 35,000 IU/week, Rx 16+ weeks): Stable
- KS response ([1]; patient PG-6, KS-C, 35,000 IU/week, Rx 12+ weeks): Stable
- KS response ([1]; patient PG-7, KS-C, 30,000 IU/week, Rx 10+ weeks): PR (PR = Partial response)
- KS response ([1]; patient PG-8, KS-C, 30,000 IU/week, Rx 12 weeks): PD (PD indicates progressive disease)
- KS response ([1]; patient PG-9, KS-C, 30,000 IU/week, Rx 11+ weeks): Stable
- KS response ([1]; patient PG-10, KS-C, 30,000 IU/week, Rx 12 weeks): Stable
- KS response ([1]; patient PG-11, KS-C, 30,000 IU/week, Rx 4.5 weeks): Stable
- KS response ([1]; patient PG-12, KS-C, 30,000 IU/week, Rx 19+ weeks): PR (PR = Partial response)
- KS response ([1]; patient PG-15, KS-C, 70,000 IU/week, Rx 8 weeks): PD (PD indicates progressive disease)
- effect on visceral (lung and gastrointestinal) KS [1]: striking clearance
- relative effectiveness among commercial hCG preparations [2]: usually more active
- relative effectiveness among commercial hCG preparations ([2]; listed as hCG from APL (Wyeth-Ayerst)): next most effective
- KS lesion response rate [3, 8]: 8%
- KS lesion response rate [3, 9]: 83%
- effect of intralesional hCG on KS lesions [3]: partial or complete regression of KS lesions
- cell death in KS Y-1 tumors (hematoxylin and eosin thin sections) [4]: extensive cell death
- reason for discontinuation of hCG therapy ([5]; patient PH-OJ, on higher doses of hCG (APL), required hospitalization): exacerbation of preexisting cholestasis

Substance: CR127: highly purified hCG preparation (heterodimer)
- anti-KS activity in clonogenic assays ([6]; 2 nmoles/ml, 2 KS neoplastic cell lines): inactive

Substance: PA: codes P and A together: patient received both Pregnyl and APL hCG preparations
- KS response ([1]; patient PH-SPBE, KS-C, 25,000 IU/week, Rx 29+ weeks): PR (PR = Partial response)

Substance: Pregnyl: commercial hCG preparation from Organon, Inc.
- KS response ([1]; patient PH-GF, KS-C, 12,500 IU/week, Rx 18+ weeks): PR (PR = Partial response)
- KS response ([1]; patient PH-GRX, KS-C, 12,500 IU/week, Rx 17+ weeks): PR (PR = Partial response)
- KS response ([1]; patient PH-LE, KS-VC, 30,000 IU/week, Rx 12+ weeks): Stable
- KS response ([1]; patient PH-OJ, KS-C, 12,500 IU/week, Rx 31+ weeks): PR (PR = Partial response)
- KS response ([1]; patient PH-RF, KS-V, 15,000 IU/week, Rx 12+ weeks): PR (PR = Partial response)
- KS response ([1]; patient PH-SP, KS-VC, 30,000 IU/week, Rx 8+ weeks): PD (PD indicates progressive disease)
- response of recurrent cutaneous KS to higher dose hCG ([1]; patient PH-VE, 30,000 IU/week): regression of recurrent cutaneous KS
- KS response ([1]; patient PH-VE, KS-C, 12,500 IU/week, Rx 80+ weeks): PR (PR = Partial response)
- KS response ([1]; patient PO-BO, KS-C, 12,500 IU/week, Rx 6+ weeks): PD (Died)
- KS response ([1]; patient PO-CJP, KS-C, 12,500 IU/week, Rx 6+ weeks): PD (PD indicates progressive disease)
- KS response [1, 10]: Stable
- KS response ([1]; patient PO-FY, KS-C, 12,500 IU/week, Rx 6+ weeks): PD (PD indicates progressive disease)
- KS response ([1]; patient PO-LC, KS-VC, 12,500 IU/week, Rx 12+ weeks): PD (PD indicates progressive disease)
- KS response ([1]; patient PO-RB, KS-VC, 12,500 IU/week, Rx 4+ weeks): PD (Died)
- effect on visceral (lung and gastrointestinal) KS [1]: striking clearance
- relative effectiveness among commercial hCG preparations [2]: next most effective

Substance: hCG from Fujisawa: non-recombinant commercial hCG preparation from Fujisawa
- relative effectiveness among commercial hCG preparations [2]: most effective

Substance: human chorionic gonadotropin [hCG]
- regression of visceral KS ([1]; 4 patients (PO-DU, PO-GE, PH-JPV, PH-RF), systemic hCG 15,000 to 30,000 IU): ≥ 75%
- macroscopic appearance of KS lesions ([1]; AIDS-KS patients, intralesional or systemic injection): macroscopic regression and flattening of KS lesions
- patients showing marked responses ([1]; Belgium patients with advanced disease, some visceral KS, systemic hCG 15,000 to 30,000 IU): 6
- patients who have not responded ([1]; Belgium patients with advanced disease, systemic hCG 15,000 to 30,000 IU, including 1 who died from opportunistic infection): Four
- anti-KS effect of systemic hCG therapy ([1]; PG patients (California trial) followed for more than 4 months): substantial anti-KS effect in 4 of the patients
- KS response ([1]; patient PH-GA, KS-C, 15,000 IU/week, Rx 12+ weeks (text: recorded at week 14)): complete regression
- KS disease status ([1]; patient PH-GA, week 6): stabilization of disease
- pulmonary function ([1]; patient PH-JPV with pulmonary and gastric KS, after one month of hCG alone): dramatically improved their pulmonary function test
- decline of pulmonary KS ([1]; patient PH-RF with gastric KS, on hCG, subsequent stabilization): 75%
- response of recurrent cutaneous KS to higher dose hCG ([1]; patient PH-VE, 30,000 IU/week): responded; also recorded: KS lesion regression was observed
- status of KS lesions ([1]; patient PH-VE, intralesional therapy began at week 0, week 3): regression of KS lesions was observed
- status of KS lesions ([1]; patient PH-VE, week 68 of hCG therapy): KS lesions recurred
- KS response [1, 10]: stabilization of pulmonary disease
- KS response ([1]; patient PO-GE, KS-VC, 15,000 IU/week, Rx 48+ weeks): complete response
- KS response ([1]; patients PG2 and PG5, on systemic hCG): exhibited a KS response
- KS response ([1]; patients PH-JJ, PH-MH, PH-LG, PH-JPV, PG-16, PG-18): partial responses
- KS response ([1]; patients PO-SC and PH-LFA): did not respond to hCG or their disease progressed on therapy
- patients who exhibited regression of KS disease ([1]; systemic protocol 35,000 IU/week, at least 4 months of follow-up): 4 of 5
- apoptosis in KS tumor thin tissue section ([7]; AIDS-KS patient, intralesional 2000 IU, 3 times weekly for 2-3 weeks): evidence of apoptosis in all cells
- apoptosis in situ immunostaining / histology of tumor biopsies ([7]; AIDS-KS patients, after 2-3 weeks of hCG therapy): evidence of apoptosis and/or, histologically, complete absence of the KS tumor
- KS tumor regression ([3]; 100,000 IU three times per week intramuscularly (Harris, 1995)): not
- KS tumor regression ([3]; 150,000 IU to 700,000 IU three times per week intramuscularly, certain KS patients (Harris, 1995)): lead to KS tumor regression
- KS lesion response rate [3, 8]: 16%
- KS lesion response rate [3, 9]: 83%
- effect of intralesional hCG on KS lesions [3]: resulted in remissions of KS lesions; also recorded: cutaneous KS lesions were reduced
- effect of systemic hCG on advanced/visceral KS ([3]; systemic injection (Hermans et al., 1995)): regression of far advanced pulmonary KS in two patients; also recorded: induced regression of advanced KS disease; also recorded: regression of visceral lesions occurred in 2 KS patients
- toxicity in treated patients ([5]; hCG-treated patients of Table 2): lack of significant toxicity
- tolerability ([5]; human patients, doses up to 45,000 I.U. per week): well tolerated
- decline of alkaline phosphatase and bilirubin values ([5]; patient PH-OJ, following discontinuation of hCG): 2 fold
- liver findings when hCG was restarted ([5]; patient PH-OJ, preexisting cholestasis exacerbated, required hospitalization): marked increase in alkaline phosphatase and rise in bilirubin
- adverse event leading to discontinuation ([5]; two patients, PH-DD (on concomitant anti-mycobacterial therapy) and PH-OJ (preexisting cholestasis)): discontinued hCG treatment because of cholestasis

Substance: pure α-chain: pure α-chain of hCG
- anti-KS effect in clonogenic assays ([6]; pure subunit chains): no anti-KS effect

Source: US5997871A (priority 1996, dated 1999)
